One data set concerns A549. Description: (§1) Cytotoxicity against human A549 cells after 48 to 72 hrs by MTT assay. It counts as ADME, cell-based. The settings on record: a549, time 48-72 hrs. In short, it runs like this:
(§2)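 A549 lung carcinoma cells seeded at 2.5 × 10^5 per well, grown 24 h at 37 °C, then given two-fold serial dilutions from 50 μg/mL to 1.56 μg/mL and incubated a further 24 h at 37 °C. MTT read-out at 48 h and 72 h after compound addition. 5-fluorouracil as positive control, DMSO as negative control.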
For orientation: Tetrazolium dyes change colour on reduction, which living cells bring about.

For a further data set, the system named is HepG2. The settings on record: human.
Data set [1] in a line: as §1. It counts as ADME, cell-based. The settings on record: A549 cells, time 48-72 hrs. In short, it runs like this:
as §2

Data set [2] is described as follows: Drug metabolism in rat liver microsomes at 10 uM preincubated with microsomes followed by NADPH addition and measured after 60 mins by LC-MS/MS analysis. The class given is ADME, Microsome. The settings on record: read-out: Drug metabolism. (Liver microsomes are a subcellular fraction often used to study metabolism.)

The values that follow come from ChEMBL document CHEMBL4706572, “Benzyl and benzoyl benzoic acid inhibitors of bacterial RNA polymerase-sigma factor interaction” (Eur J Med Chem, 2020).

`O=C(O)c1cc(C(F)(F)F)ccc1Cc1ccc(Sc2ccc(Cl)c(Cl)c2)c([N+](=O)[O-])c1`: the CC50 with A549 came out at 14.8 mM; in the data set with HepG2, 3.41 mM.
For `O=C(O)c1ccc(Cl)cc1Cc1ccc(Sc2ccc(Cl)c(Cl)c2)c([N+](=O)[O-])c1`, in that order: 24 mM and 3.9 mM.
Take `O=C(O)c1ccc(C(F)(F)F)cc1Cc1ccc(Sc2ccc(Cl)c(Cl)c2)c([N+](=O)[O-])c1`: the CC50 in the data set on A549 stood at 0.129 mM; in the data set on HepG2, 0.145 mM.
Consider `O=C(O)c1ccc(C(F)(F)F)cc1C(=O)c1ccc(Sc2ccc(Cl)c(Cl)c2)c([N+](=O)[O-])c1`, for which the CC50 in data set [1] was 18.4 mM; in the data set with HepG2, 0.387 mM.
Take `NC(=O)N1c2ccccc2C=Cc2ccccc21` [CARBAMAZEPINE]: in data set [2], the metabolised at 1 h, 10 µM turned out to be 39.4%.
